The list shows a part of the results, in another mix than the full data. Activity calls are given as the source filed them. No stated cut-off is given here; in the data, active means inhibition above about 32% (passing the limit was not always enough); inconclusive means no clear call, values can overlap the other calls.

Chains of the proteins cited; added tags and fusions are not shown. Residues count along the entry.
UniProt P25774, 115-331 limits assumed: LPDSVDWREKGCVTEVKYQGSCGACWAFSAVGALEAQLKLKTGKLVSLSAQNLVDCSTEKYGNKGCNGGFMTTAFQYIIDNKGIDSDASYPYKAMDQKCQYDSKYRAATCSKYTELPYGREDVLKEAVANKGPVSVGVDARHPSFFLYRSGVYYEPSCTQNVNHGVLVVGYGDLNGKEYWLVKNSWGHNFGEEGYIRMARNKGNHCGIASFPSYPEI

The test concerns the target Cathepsin S (Homo sapiens) (UniProt P25774). The test can be described thus: blockers of CTSS protease activity – biochemical, compound mixtures (AID 501).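 Further: 0% = enzyme without compound and 100% = blank without enzyme.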 As to conditions: recombinant cathepsin S, AMC dipeptide fluorescence, pooled mixtures; active compounds read high;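 tested at 5 µM per compound within 10-compound mixtures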.
With `O=C(OC1CN2CCC1CC2)C1c2ccccc2Oc2ccccc21` (stereo unspecified), the inhibition was inactive: -9.91%.

As to `N#CC1(Nc2ccccc2)CCN(CCc2ccccc2)CC1`, the inhibition was inactive: -0.165%.

For `N/C(=N\O)c1c(N)no[n+]1[O-]`, the inhibition is inactive: 0.325%.

As to `Fc1ccccc1NC1CCN(Cc2ccccc2)CC1`, the inhibition was inactive: -22.3%.

Turning to `CCC(CO)(C(=O)OC1CN2CCC1CC2)c1ccccc1` (stereo unspecified), the inhibition is inactive: 2.47%.

Regarding `CCOc1ncccc1C(=O)NCC1(N2CCOCC2)CCCCC1`, the inhibition was inactive: -1.99%.

The inhibition is the relative decrease from the control value, in per cent.
